# Antibody variant affinities, Ab-95 light chain, assay 2

From the AlphaSeq antibody data of Engelhart et al. 2022 (doi:10.1038/s41597-022-01779-4), copy in the FLAb collection.

Target peptide (SARS-CoV-2 spike, HR2 region): PDVDLGDISGINAS

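The starting antibody came from a phage panning campaign against this peptide. In library AAYL52, one, two or three CDR residues were substituted; doubles and triples were drawn at random. Affinity was read by AlphaSeq, a pooled yeast mating assay with surface-displayed partners. Binding brings cells together so that they mate, and sequencing counts the barcode pairs among the diploids. The ratio of observed to expected reads was calibrated, replicate by replicate, on BCL2-family standards whose Kd was known from biolayer interferometry. Mating was done three times.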

Each scFv is VH, a (GGGGS)3 linker, VL, as in the parent Ab-95, and differs from it in the CDRs of the light chain only.
VH: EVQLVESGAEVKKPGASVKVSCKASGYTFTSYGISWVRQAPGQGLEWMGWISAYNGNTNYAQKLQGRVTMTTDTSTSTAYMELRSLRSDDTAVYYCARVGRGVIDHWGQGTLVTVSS
VL: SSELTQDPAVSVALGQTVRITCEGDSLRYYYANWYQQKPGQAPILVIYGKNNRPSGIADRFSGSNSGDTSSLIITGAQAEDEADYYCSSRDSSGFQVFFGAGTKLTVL

Each variant is given by its three light chain CDRs, as the data file delimits them; those of the parent are EGDSLRYYYAN, GKNNRPS, SSRDSSGFQVF. All variants listed here change G49 of the VL, counted from its first residue. The Kd shown is the geometric mean over detected replicates; a lower Kd is a better binder. "nd" means that the variant was in the library but no mating with the target was seen in any replicate; the authors take this as a sign of poor binding, and no number exists.

- EGDSLRYYYAN | KNNNRPS | TSRDSSGFQVF: nd (0 of 3 replicates)
- EGDSLRYYYAN | RKWNRPS | SSRDSSMFQVF: 2.7 µM (2 of 3 replicates)
- EGDSLRYYYAN | FANNRPS | SSPDSSGFQVF: 12 µM (2 of 3 replicates)
- EGDSHRYYYAT | QKNNRPS | SSRDSSGFQVF: 9.4 µM (2 of 3 replicates)
- EGDSLPYYYAN | FKNNRPS | SSRDSSGAQVF: 6.5 µM (1 of 3 replicates)
- EGDRLRYYYAN | NKNNRPS | SSRDSSGQQVF: 720 nM (3 of 3 replicates)
- EGDSLRYYYAN | TKNNRPS | PSRDSSCFQVF: 2.8 µM (1 of 3 replicates)
- FGDSLRYYYAN | TKNNRPS | SSRDSSGFFVF: 91 µM (2 of 3 replicates)
- EGDSLRYYYAN | EKNNRPS | SSLDSSGFQVF: nd (0 of 3 replicates)
- EGDSLRYYYAN | EKLNRPS | SSRDSSGFGVF: 16 µM (2 of 3 replicates)
- EGDSLRYYYAN | DKNNRPS | CSKDSSGFQVF: 32 µM (1 of 3 replicates)
- EGDSLRYVYAN | EKNNRPS | SSRDSSGFQRF: 1.4 µM (3 of 3 replicates)
- EGDSLRNYYAN | AKHNRPS | SSRDSSGFQVF: 7.3 µM (1 of 3 replicates)
- EGDSLRYYWAN | PKNNRPS | SSRDSSGFQVF: 25 µM (3 of 3 replicates)
- EGDSPRYYYAN | DKNNRPS | STRDSSGFQVF: 730 nM (2 of 3 replicates)
- EGDSLRYEYAN | IKNNTPS | SSRDSSGFQVF: 120 µM (2 of 3 replicates)
- EGDSLRYYYAN | AKNNRPW | SSRDSSGFQVF: 490 µM (1 of 3 replicates)
- EGRSLRYYYAN | QKNNRPS | KSRDSSGFQVF: nd (0 of 3 replicates)
- EGDSLRYYYAN | IKNNRPS | SSRDLSGFQVF: 55 µM (1 of 3 replicates)
- EGDSKRYYYAN | RKNNRPS | SSRDSCGFQVF: 380 µM (1 of 3 replicates)
- EGDQLRYYYAN | QKNNRPS | SSRDSSGFKVF: 4.8 µM (1 of 3 replicates)
- EGDSLRYHYAN | MKNNRPS | SSRDSSGFQVH: 83 nM (3 of 3 replicates)
- EGDSLRYYYAQ | EKNNRPS | GSRDSSGFQVF: 1.8 µM (1 of 3 replicates)
- EGDSLRYYYAN | PKYYRPS | SSRDSSGFQVF: 33 µM (2 of 3 replicates)
- EGDSLRYYYAL | RKNNRPS | SSRDSNGFQVF: nd (0 of 3 replicates)
- EGDSLRYYYAN | AKSNRPS | SPRDSSGFQVF: 56 µM (1 of 3 replicates)
- EGDSLRYYYAN | EKRNLPS | SSRDSSGFQVF: nd (0 of 3 replicates)
- EGDSLRYYYAN | AKGNRAS | SSRDSSGFQVF: 890 nM (2 of 3 replicates)
- EGDSLRYYYPN | DKNNRPG | SSRDSSGFQVF: 110 nM (3 of 3 replicates)
- WGDSLRYYYAN | QKNNRPS | SSWDSSGFQVF: 26 µM (3 of 3 replicates)
- EGDSLRYYYQN | DKNNCPS | SSRDSSGFQVF: 250 nM (3 of 3 replicates)
- EGDSLRYKYAN | DKNNRPS | SSRDSSGFQVQ: 36 nM (3 of 3 replicates)
- EGDSLRYYWAN | FKNNRPS | SSRDSSGFQDF: nd (0 of 3 replicates)
- EGDSLRYYYAN | LKNNYPS | SSRDVSGFQVF: nd (0 of 3 replicates)

Again, the first 2 entries without any signal:

{"CDR-L1": "EGDSLRYYYAN", "CDR-L2": "KNNNRPS", "CDR-L3": "TSRDSSGFQVF", "Kd (apparent)": "nd", "replicates with signal": "0 of 3"}
{"CDR-L1": "EGDSLRYYYAN", "CDR-L2": "EKNNRPS", "CDR-L3": "SSLDSSGFQVF", "Kd (apparent)": "nd", "replicates with signal": "0 of 3"}

In this assay the parent's reference entry averaged 200 nM; its copy inside this library read 180 nM. Empty control strains, which show no peptide, gave a signal in 28% of pairings with library AAYL52; the median was 8.2 µM and 95% of these signals were weaker than 800 nM. No background was subtracted.